In patent US5428058A, “Phospholipase A2 inhibitors” (American Home Products Corporation, priority 1994, dated 1995):

Biological target: T1, 5-lipoxygenase (Mus musculus, UniProt P48999)
T1 construct: Resident peritoneal macrophages were collected from female Swiss Webster mice; endogenous in cells; host or cells: resident peritoneal macrophages of female Swiss Webster mice
T1 sequence (P48999 1-674): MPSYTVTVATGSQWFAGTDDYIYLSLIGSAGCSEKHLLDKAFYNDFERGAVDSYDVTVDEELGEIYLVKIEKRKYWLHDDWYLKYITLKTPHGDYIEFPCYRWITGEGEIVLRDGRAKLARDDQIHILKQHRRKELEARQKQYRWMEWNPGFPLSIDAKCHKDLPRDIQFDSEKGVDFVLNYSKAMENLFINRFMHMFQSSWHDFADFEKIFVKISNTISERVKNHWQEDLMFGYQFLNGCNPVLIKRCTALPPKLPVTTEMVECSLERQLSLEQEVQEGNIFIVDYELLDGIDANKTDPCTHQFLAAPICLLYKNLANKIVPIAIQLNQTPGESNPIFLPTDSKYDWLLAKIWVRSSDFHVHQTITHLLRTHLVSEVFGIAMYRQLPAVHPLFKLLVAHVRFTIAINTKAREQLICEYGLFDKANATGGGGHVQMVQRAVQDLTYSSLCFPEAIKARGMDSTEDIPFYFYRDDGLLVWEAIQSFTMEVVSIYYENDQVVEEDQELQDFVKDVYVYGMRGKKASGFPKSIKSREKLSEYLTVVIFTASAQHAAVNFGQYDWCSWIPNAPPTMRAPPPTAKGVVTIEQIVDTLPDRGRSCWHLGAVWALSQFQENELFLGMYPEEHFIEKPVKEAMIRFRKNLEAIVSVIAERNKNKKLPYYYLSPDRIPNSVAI
Assay: 5-lipoxygenase inhibition (LTC4 production) in resident murine peritoneal macrophages
Type: cell-based, mouse (Swiss Webster)
Settings: reference inhibitors; stimulated mouse macrophages; 95% confidence limits on next line
Method: The ability of the compounds of the invention to act as inhibitors of the enzymes 5-lipoxygenase and cyclooxygenase was evaluated in the resident murine peritoneal macrophage standard pharmacological test procedure. This test procedure was carried out as follows.
Resident peritoneal macrophages were collected from female Swiss Webster mice (49 days old, 20-25 gms, Buckshire) by lavaging with 7-8 ml Hanks Balanced Salt Solution (HBSS) without Ca^++ and Mg^++ (GIBCO). The lavage fluid from several mice was pooled and centrifuged at 4° C. for 10 minutes at 400 xg. The cell pellet was resuspended in Medium 199 (GIBCO) with HEPES buffer containing 100 μg/ml gentamicin. Two ml of the cell suspension (4×10^6 cells) were then plated on 35 mm culture dishes (Nunc).
A macrophage monolayer was established after a 1-1.5 hour incubation of the cells at 37° C. in an atmosphere of […] and 5% CO2. […]
Residual serum and cellular debris were removed from the monolayers by washing 3× with 2 ml HBSS containing Ca^++ and Mg^++. […] In all cases, results are expressed as ng metabolite/4×10^6 cells.
Calculations: The raw data were converted to ng metabolite/4-10^6 cells using a standard curve. Results were then expressed as percent inhibition of zymosan induced, leukotriene or prostaglandin synthesis (control) using the following equation: [formula] […]

NC1=NN(c2cccc(C(F)(F)F)c2)CC1 [BW 755c, reference compound] gave an IC50 of 210 nM.
